This passage reports IC50 results from publication PMC6411751, “Use of machine learning to identify novel, behaviorally active antagonists of the insect odorant receptor co-receptor (Orco) subunit” (Scientific Reports, 2019).

Amino acid sequences for entries named in this document (tags omitted).
UniProt Q7QCC7, whole entry: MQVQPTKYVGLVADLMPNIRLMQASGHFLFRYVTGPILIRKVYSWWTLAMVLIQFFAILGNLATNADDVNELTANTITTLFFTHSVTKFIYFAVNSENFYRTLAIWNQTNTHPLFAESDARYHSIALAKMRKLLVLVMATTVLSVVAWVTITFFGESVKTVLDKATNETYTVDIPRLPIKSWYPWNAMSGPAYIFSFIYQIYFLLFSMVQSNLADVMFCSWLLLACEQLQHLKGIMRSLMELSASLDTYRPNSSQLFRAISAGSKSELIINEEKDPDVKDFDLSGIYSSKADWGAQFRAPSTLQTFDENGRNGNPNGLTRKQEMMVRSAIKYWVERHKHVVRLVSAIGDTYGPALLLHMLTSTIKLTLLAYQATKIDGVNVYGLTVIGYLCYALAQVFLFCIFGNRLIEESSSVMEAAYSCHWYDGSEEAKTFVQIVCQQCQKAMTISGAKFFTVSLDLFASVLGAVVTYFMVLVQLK

The experiment addresses Agam\Orco (Anopheles gambiae, UniProt Q7QCC7). Conditions: Table S1; training actives; Agam\Orco activated by 30 µM OLC12; mean ± SEM (n = 3-8).

A word on the IC50: it is the point on the concentration scale where inhibition reaches its midpoint. `CCc1ccccc1NC(=O)/C=C/c1cccs1` had an IC50 of 143 µM.
